Biological target: GSK3α (Homo sapiens, UniProt P49840)
Test: biochemical

The chains behind the UniProt entries cited, without tags or fusion partners. Where a name states a change or a piece, a line headed by the entry shows the natural chain unless it says otherwise.
UniProt P49840: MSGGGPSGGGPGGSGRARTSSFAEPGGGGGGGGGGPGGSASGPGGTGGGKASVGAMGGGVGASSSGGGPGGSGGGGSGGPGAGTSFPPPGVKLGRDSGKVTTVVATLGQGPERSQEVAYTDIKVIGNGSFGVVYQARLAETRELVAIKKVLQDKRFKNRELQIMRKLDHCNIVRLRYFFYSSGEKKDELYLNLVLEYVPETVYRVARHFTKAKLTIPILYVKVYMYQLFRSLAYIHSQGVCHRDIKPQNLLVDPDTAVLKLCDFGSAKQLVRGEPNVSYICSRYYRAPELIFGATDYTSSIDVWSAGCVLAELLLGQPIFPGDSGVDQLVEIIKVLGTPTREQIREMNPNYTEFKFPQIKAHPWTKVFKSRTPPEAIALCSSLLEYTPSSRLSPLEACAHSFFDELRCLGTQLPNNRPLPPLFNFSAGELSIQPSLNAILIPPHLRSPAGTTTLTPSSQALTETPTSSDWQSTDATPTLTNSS

Row | Compound | IC50
1 | CC1(C)CC(=O)C2=C(C1)Nc1n[nH]cc1[C@@]2(C)c1ccccc1 (stereo in doubt) [Compound 109] | 9840 nM
2 | CC1(C)CC(=O)C2=C(C1)Nc1n[nH]cc1[C@]2(C)c1ccccc1 (stereo in doubt) [Compound 108] | 53 nM
3 | CC1(C)CC(=O)C2=C(C1)Nc1n[nH]cc1C2(C)c1ccccc1 (racemic) [Compound 107] | 360 nM

Reference: patent publication US20160375006A1 (published 2016)
